Test results published in ChEMBL document CHEMBL1126787, “Ethyl substitution at the 7 position extends the half-life of 10-hydroxycamptothecin in the presence of human serum albumin” (J Med Chem, 1993).

What was measured:
Format in all cases: functional
[1] = species on record: Homo sapiens; assay: n value for the binding of lactone form to human serum albumin (n value = number of amino acid per binding site)
Procedure, shortened: (§1)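 Fluorescence lifetime titration of lactone or carboxylate form (20 μM total drug) with varying HSA. Phase-shift lifetimes measured with 30 MHz modulated excitation, emission taken through a 500-nm long-pass filter. Free fraction computed as (τ − τB)/(τF − τB). K and n obtained by nonlinear least-squares fit to K = [Db]/[Df][aa]^n, where aa is amino acid residues.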

[2] = species on record: Homo sapiens; assay: % of lactone form at equilibrium in HSA buffer at 37 C in the presence of human serum albumin
Procedure, shortened: (§2)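 Lactone-to-carboxylate hydrolysis of drug (1 μM total) in PBS (137 mM NaCl, 3 mM KCl, 8 mM Na2HPO4, 1 mM KH2PO4, pH 7.4) at 37 °C, with or without 20 mg/mL (290 μM) HSA. Monitored by HPLC over time. t1/2 and equilibrium % lactone fitted to decay profiles by nonlinear least squares. Average of at least three independent kinetic runs.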

[3] = species on record: Homo sapiens; assay: % of lactone form at equilibrium in PBS buffer at 37 C in the absence of human serum albumin; procedure, shortened: as §2
[4] = species on record: Homo sapiens; assay: n value for the binding of carboxylate form to human serum albumin (n value = number of amino acid per binding site); procedure, shortened: as §1

With `CCc1c2c(nc3ccc(O)cc13)-c1cc3c(c(=O)n1C2)COC(=O)[C@]3(O)CC` [7-ETHYL-10-HYDROXYCAMPTOTHECIN] the Activity [1] was 1.7, the Activity [2] was 38% and the Activity [3] was 13%. The Activity [4] was 1.4.
